This assay concerns Escherichia coli.

As for GENTAMICIN, inhibition of growth (MIC) required 0.5 µg/mL.

In general, MIC refers to the least concentration at which growth counts as inhibited. Low values mean inhibition by little substance, high ones a need for much substance.

The record behind these values is ChEMBL document CHEMBL1140025, “Antimicrobial activity of rationally designed amino terminal modified peptides” (Bioorg Med Chem Lett, 2007).
